Experimental data from patent US20230285371A1 (THE SECOND XIANGYA HOSPITAL OF CENTRAL SOUTH UNIVERSITY, priority 2020, published 2023).

Tested on: Naive CD4+ T cells
Assay: Cytotoxicity to T cells: cell count after 48 hours
Type: cell-based, C57BL/6J mice
Conditions: increasing concentrations

Question: Which “cytotoxicity to Naive CD4+ T cells” value does the source give for Sorafenib here?
Answer: not cytotoxic
